Measurements published in patent publication US3989598A (priority 1962, dated 1976).

Tested on: numerous bacteria, certain of which are resistant to antibiotics
Assay: bacteriostatic activity, dilution methods (summary of Table VI)
Type: cell-based
Conditions: certain bacteria resistant to one or more antibiotics
Excerpt: For each organism, the lowest concentration of substance has been determined which, under the defined condition, prevents all visible development in an appropriate nutritive broth. The results of various determinations are shown in Table VI, wherein the minimal bacteriostatic concentrations are expressed as micrograms of substance per cubic centimeter of experimental medium.

Structure (SMILES): COc1cccc2c1C(=O)c1c(O)c3c(c(O)c1C2=O)C[C@@](O)(C(C)=O)C[C@@H]3O[C@H]1C[C@H](N)[C@H](O)[C@H](C)O1 [13057 RP daunorubicin, daunorubicin]
- bacteriostatic activity: exerted against numerous bacteria
